# PubChem BioAssay (NCATS)
# The chains behind the UniProt entries cited, without tags or fusion partners. Where a name states a change or a piece, a line headed by the entry shows the natural chain unless it says otherwise.
# UniProt A8B2U2: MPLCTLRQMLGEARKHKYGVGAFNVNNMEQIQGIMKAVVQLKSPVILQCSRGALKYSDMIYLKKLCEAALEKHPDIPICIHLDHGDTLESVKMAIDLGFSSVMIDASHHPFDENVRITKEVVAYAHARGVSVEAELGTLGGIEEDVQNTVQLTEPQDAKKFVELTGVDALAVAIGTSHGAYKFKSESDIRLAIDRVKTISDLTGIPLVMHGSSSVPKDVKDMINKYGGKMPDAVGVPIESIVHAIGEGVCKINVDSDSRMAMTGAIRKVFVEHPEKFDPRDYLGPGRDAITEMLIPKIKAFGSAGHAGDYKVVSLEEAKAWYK
# UniProt P00883: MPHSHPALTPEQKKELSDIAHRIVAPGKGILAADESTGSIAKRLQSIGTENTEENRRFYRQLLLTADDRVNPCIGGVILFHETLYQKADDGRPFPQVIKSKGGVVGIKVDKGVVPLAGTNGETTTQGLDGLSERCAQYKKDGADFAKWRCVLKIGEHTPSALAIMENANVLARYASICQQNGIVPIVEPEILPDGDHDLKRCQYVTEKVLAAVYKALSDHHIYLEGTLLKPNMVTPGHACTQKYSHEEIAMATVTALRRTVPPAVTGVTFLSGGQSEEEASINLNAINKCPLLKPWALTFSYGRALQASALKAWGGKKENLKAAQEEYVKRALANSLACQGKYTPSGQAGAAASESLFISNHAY
# Only a part is listed here, and it is no random draw. Records with an inconclusive call do not appear. The source made the active and inactive calls. Unless noted, the call rests on the fitted dose curve; in most records, active means well fitted curve in the direction sought with a large enough effect; inconclusive means small, poorly fitted or top-dose-only effect, or another doubt; inactive means no such curve, though single readings can be large; an effect the other way counts as inactive or inconclusive.
# How the values were obtained:
# [1] = qHTS Assay for Inhibitors of Fructose-1,6-bisphosphate Aldolase from Giardia Lamblia: Giardia lamblia growth inhibition (AID 2785); settings: Giardia lamblia trophozoite growth inhibition; at 38.3 µM (top of the series); further: on the % scale 0 is the no-effect control and ±100 the full control effect; nearly all actives have a fitted effect of over 70% in size
# Outline: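 Whole-parasite growth test: Giardia WB trophozoites in TYI-S-33 (pH 7.0), 100 per well, incubated 48 h at 37C with compound. ATP content was read by ATPlite luminescence.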
# [2] = qHTS Assay for Inhibitors of Fructose-1,6-bisphosphate Aldolase from Giardia Lamblia: Mammalian cellular toxicity (AID 2786); settings: mammalian cell viability counter-screen; at 57.5 µM (top of the series);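 further: compound exposure lasted 48 h before reading; on the % scale 0 is the no-effect control and ±100 the full control effect; nearly all actives have a fitted effect of over 60% in size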
# Outline: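 Mammalian cytotoxicity surrogate: Chinese hamster ovary cells exposed to compound for 48 h at 37 °C. Cellular ATP then measured with ATPlite reagent, 20 min incubation.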
# [3] = biological target: Fructose-bisphosphate aldolase (Giardia intestinalis (strain ATCC 50803 / WB clone C6)) (UniProt A8B2U2); assay: qHTS Assay for Inhibitors of Fructose-1,6-bisphosphate Aldolase from Giardia Lamblia: Primary screen confirmation (AID 2787); settings: purified Giardia aldolase enzyme activity; at 57.5 µM (top of the series);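 further: aldolase product measured through coupled diaphorase step turning resazurin into fluorescent resorufin; on the % scale 0 is the no-effect control and ±100 the full control effect; nearly all actives have a fitted effect of over 45% in size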
# Outline: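 Confirmation of primary hits by qHTS up to 57.5 uM final compound. Enzyme at 40 nM with 30 uM ZnCl2, 10 min RT pre-incubation, then substrate/coupling/resorufin-forming detection mix for 20 min before fluorescence read at 525/598 nm.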
# [4] = biological target: Fructose-bisphosphate aldolase A (Oryctolagus cuniculus) (UniProt P00883); assay: qHTS Assay for Inhibitors of Fructose-1,6-bisphosphate Aldolase from Giardia Lamblia: Rabbit FBPA Selectivity (AID 2794); settings: Rabbit muscle FBPA enzyme inhibition, selectivity counter-screen; at 57.5 µM (top of the series); further: on the % scale 0 is the no-effect control and ±100 the full control effect; nearly all actives have a fitted effect of over 60% in size
# Outline: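 Rabbit FBPA, coupled to a resorufin-type fluorescent read (525/598 nm), tests whether primary hits hit Class I aldolase. Compound (up to 57.5 uM final) sits 10 min at RT with coupling enzyme before substrate/detection mix; read after 20 min RT.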
# [5] = qHTS Assay for Inhibitors of Fructose-1,6-bisphosphate Aldolase from Giardia Lamblia: Coupling assay counterscreen confirmation (AID 2795); settings: GAPDH coupling enzyme counterscreen, biochemical; at 57.5 µM (top of the series); further: on the % scale 0 is the no-effect control and ±100 the full control effect; nearly all actives have a fitted effect of over 55% in size
# Outline: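 Fluorescence (excitation 525 nm, emission 598 nm) reports signal from the coupled glyceraldehyde-3-phosphate dehydrogenase system with an AmpLite Red detection kit. Compounds up to 57.5 uM final were incubated 10 min, then 20 min after substrate addition, both at room temperature.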
# [6] = Primary qHTS for inhibitors of nuclear receptor binding SET domain protein 2 (NSD2) in an isogenic RCH-ACV NSD2 p.E1099K mutant (9B) (AID 1645876); further: potency means the concentration at half of the fitted maximal effect; nearly all actives have a fitted effect of over 70% in size
# [7] = Primary qHTS for inhibitors of nuclear receptor binding SET domain protein 2 (NSD2) in an RCH-ACV wild type WT cells (2C) (AID 1645877); further: potency means the concentration at half of the fitted maximal effect; nearly all actives have a fitted effect of over 70% in size
# [8] = qHTS drug screen for cell cycle checkpoint inhibitors in PARPi-resistant BRCA-mutant ovarian cancer cell lines. (AID 1963452; calls by dose curve); settings: PEO1/OlaR viability, CellTiter-Glo luminescence, 96 h; stronger effect = lower value
# Outline: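 PEO1, PEO4 and PEO1/OlaR ovarian cancer cells, 600 per well, exposed 96 h at 37C to a dilution series. Viability read by CellTiter-Glo luminescence, normalized to DMSO and empty wells; activity summarized as Z-AUC.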
SMILES,"activity change, negative = inhibition [1]","viability change, negative = toxicity [2]","activity change, negative = inhibition [3]","activity, negative = inhibition [4]","activity change, negative = inhibition [5]",Potency [6],Potency [7],Z-AUC [8]
O=P(Nc1nccs1)(c1ccccc1)c1nc2ccccc2s1 (stereo not drawn),inactive: -17.9%,inactive: -6.92%,inactive: -15.5%,inactive: -11.8%,inactive: -8.01%,–,–,–
N[C@@H](Cc1ccc([N+]([O-])(CCCl)CCCl)cc1)C(=O)O,–,–,–,–,–,active: 3.72 µM,active: 3.32 µM,inactive: 0.317
